Laboratory results reported in ChEMBL document CHEMBL4622925, “N1-Substituted benzimidazole scaffold for farnesoid X receptor (FXR) agonists accompanying prominent selectivity against vitamin D receptor (VDR)” (Bioorg Med Chem, 2020).

Protein sequences, listed by entry. Tags and fused reporters are not part of them. Lines headed by an entry give the natural chain unless they say otherwise; changes in a name come on top.
UniProt P10276, whole entry: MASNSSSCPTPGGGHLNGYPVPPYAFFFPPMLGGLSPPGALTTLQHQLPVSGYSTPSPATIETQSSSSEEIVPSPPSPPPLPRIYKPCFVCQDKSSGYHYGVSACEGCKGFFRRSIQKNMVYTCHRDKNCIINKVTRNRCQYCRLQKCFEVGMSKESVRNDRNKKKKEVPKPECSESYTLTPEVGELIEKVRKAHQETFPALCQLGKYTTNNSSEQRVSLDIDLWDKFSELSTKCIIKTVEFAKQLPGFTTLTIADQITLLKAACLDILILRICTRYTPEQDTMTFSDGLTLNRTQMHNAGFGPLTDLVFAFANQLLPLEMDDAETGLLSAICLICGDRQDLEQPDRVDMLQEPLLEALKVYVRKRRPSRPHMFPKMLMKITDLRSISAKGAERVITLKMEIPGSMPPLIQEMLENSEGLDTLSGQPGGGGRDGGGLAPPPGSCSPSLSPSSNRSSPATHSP
UniProt Q13133, whole entry: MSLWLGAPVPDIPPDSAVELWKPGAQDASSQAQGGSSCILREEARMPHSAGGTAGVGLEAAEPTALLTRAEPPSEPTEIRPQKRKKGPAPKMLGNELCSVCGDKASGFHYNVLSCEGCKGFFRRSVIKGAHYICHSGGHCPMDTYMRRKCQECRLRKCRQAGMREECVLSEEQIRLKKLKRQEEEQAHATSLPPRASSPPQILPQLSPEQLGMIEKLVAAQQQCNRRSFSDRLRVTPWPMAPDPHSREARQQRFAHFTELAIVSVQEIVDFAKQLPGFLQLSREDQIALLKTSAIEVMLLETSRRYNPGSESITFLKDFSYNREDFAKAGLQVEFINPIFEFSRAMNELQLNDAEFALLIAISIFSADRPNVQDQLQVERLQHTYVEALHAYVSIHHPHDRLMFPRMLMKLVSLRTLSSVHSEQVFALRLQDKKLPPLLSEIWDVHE
UniProt P55055, whole entry: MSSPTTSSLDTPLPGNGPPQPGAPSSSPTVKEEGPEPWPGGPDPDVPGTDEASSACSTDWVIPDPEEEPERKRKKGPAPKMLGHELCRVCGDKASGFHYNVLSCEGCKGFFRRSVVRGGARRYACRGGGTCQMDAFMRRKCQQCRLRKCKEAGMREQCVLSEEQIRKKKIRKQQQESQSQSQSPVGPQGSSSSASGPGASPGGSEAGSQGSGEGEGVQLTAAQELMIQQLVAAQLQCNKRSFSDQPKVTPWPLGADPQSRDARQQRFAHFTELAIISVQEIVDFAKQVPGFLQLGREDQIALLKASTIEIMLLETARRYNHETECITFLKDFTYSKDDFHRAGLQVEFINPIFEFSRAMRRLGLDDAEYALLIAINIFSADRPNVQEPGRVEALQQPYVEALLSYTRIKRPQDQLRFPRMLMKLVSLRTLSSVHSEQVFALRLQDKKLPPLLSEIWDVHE
UniProt P37231: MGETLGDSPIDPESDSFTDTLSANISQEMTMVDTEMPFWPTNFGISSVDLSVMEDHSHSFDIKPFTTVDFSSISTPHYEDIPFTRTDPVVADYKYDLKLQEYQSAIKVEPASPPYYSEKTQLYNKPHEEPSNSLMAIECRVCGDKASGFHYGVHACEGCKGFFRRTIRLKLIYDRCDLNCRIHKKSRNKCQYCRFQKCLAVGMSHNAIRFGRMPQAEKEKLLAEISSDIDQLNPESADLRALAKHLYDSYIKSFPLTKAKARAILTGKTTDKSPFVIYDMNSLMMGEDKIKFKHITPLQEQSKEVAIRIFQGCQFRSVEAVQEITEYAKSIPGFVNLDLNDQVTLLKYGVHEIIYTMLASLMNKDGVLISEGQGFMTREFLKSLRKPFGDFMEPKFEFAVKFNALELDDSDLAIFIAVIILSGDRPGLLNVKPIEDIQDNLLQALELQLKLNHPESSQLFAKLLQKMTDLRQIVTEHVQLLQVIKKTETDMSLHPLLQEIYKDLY

What was measured:
Assay type in all cases: cell-based
Details in all cases: Huh-7
[1] = molecular target: T1, Retinoic acid receptor RXR-alpha (Homo sapiens) (UniProt P19793); assay: Agonist activity at human RXRalpha transfected in human HuH7 cells assessed as receptor transactivation at 1 uM by luciferase reporter gene assay
T1 sequence (whole entry): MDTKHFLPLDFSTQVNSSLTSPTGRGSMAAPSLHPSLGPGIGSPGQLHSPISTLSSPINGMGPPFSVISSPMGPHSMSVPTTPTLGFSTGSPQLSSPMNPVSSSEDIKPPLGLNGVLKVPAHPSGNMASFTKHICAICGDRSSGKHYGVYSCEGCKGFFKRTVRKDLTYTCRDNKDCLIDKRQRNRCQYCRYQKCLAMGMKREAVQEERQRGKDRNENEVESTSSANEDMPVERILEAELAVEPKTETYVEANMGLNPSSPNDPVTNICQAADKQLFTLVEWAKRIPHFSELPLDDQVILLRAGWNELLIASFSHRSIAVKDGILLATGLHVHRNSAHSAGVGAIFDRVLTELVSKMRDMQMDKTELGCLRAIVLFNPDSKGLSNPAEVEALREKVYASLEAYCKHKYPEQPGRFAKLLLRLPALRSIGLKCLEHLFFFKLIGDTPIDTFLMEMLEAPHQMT

[2] = molecular target: Retinoic acid receptor alpha (Homo sapiens) (UniProt P10276); assay: Agonist activity at human RARalpha transfected in human HuH7 cells assessed as receptor transactivation at 1 uM by luciferase reporter gene assay
[3] = molecular target: T2, G-protein coupled bile acid receptor 1 (Homo sapiens) (UniProt Q8TDU6); assay: Agonist activity at human TGR5 transfected in human HuH7 cells assessed as receptor transactivation at 1 uM by luciferase reporter gene assay
T2 sequence (whole entry): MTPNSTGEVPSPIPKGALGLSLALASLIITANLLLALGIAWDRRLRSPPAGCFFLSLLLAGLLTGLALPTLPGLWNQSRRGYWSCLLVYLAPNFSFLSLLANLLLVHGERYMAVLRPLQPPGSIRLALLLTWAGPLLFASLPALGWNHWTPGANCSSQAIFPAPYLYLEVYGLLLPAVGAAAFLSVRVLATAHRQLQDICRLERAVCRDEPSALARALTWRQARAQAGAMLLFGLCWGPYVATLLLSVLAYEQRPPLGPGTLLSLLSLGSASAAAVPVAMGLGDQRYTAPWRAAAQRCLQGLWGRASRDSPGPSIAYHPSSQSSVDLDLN

[4] = molecular target: Oxysterols receptor LXR-alpha (Homo sapiens) (UniProt Q13133); assay: Agonist activity at human LXRalpha transfected in human HuH7 cells at 1 uM assessed as receptor transactivation by luciferase reporter gene assay
[5] = molecular target: Oxysterols receptor LXR-beta (Homo sapiens) (UniProt P55055); assay: Agonist activity at human LXRbeta transfected in human HuH7 cells assessed as receptor transactivation at 1 uM by luciferase reporter gene assay
[6] = molecular target: T3, Peroxisome proliferator-activated receptor alpha (Homo sapiens) (UniProt Q07869); assay: Agonist activity at human PPARalpha transfected in human HuH7 cells assessed as receptor transactivation at 1 uM by luciferase reporter gene assay
T3 sequence (whole entry): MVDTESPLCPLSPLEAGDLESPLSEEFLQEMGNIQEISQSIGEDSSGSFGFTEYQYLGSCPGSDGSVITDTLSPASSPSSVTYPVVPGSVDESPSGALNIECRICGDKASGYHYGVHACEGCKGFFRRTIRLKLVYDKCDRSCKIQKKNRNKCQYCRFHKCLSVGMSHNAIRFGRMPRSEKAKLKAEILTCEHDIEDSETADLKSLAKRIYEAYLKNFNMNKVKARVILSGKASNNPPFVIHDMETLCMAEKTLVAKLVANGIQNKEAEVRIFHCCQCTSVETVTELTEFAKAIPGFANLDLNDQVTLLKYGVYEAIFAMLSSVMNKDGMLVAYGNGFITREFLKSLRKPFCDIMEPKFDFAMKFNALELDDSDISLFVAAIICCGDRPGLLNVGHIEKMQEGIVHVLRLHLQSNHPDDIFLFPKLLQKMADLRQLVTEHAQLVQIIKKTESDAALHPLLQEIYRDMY

[7] = molecular target: Peroxisome proliferator-activated receptor gamma (Homo sapiens) (UniProt P37231); assay: Agonist activity at human PPARgamma transfected in human HuH7 cells assessed as receptor transactivation at 1 uM by luciferase reporter gene assay
[8] = molecular target: T4, Peroxisome proliferator-activated receptor delta (Homo sapiens) (UniProt Q03181); assay: Agonist activity at human PPARdelta transfected in human HuH7 cells assessed as receptor transactivation at 1 uM by luciferase reporter gene assay
T4 sequence (whole entry): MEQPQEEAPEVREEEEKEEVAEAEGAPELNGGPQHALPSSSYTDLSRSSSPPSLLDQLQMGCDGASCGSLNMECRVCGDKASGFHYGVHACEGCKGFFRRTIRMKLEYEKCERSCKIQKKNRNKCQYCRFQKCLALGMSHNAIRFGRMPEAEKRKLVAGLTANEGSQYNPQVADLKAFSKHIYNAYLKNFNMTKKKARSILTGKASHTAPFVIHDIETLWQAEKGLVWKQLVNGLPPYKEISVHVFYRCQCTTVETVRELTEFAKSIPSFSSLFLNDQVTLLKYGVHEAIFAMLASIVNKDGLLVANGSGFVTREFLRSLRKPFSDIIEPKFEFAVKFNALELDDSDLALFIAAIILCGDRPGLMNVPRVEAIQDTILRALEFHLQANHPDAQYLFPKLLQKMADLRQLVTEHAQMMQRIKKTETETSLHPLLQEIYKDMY

Measured: Activity

CCCC(CCC)n1c(-c2ccc(OCc3c(-c4c(Cl)cccc4Cl)noc3C(C)C)cc2)nc2ccc(C(=O)O)cc21
inactive: all assays above

CCC(CC)n1c(-c2ccc(OCc3c(-c4c(Cl)cccc4Cl)noc3C(C)C)cc2)nc2ccc(C(=O)O)cc21
inactive: all assays above

Calls of active or inactive are those of the source.
